Patent US20210371526A1

Molecular target: Her2 (human epidermal growth factor receptor 2) on tumor cells (human) (UniProt P04626)
Test: cell-based or functional assay

Substance: Monoclonal antibody Herceptin (from Roche)
- EC50 of activation of Jurkat T cells with NFAT RE luciferase reporter in the presence of target cells: 9.91 pM
